Earlier results as cited in publication PMC6173998.

Target: FXIa (Homo sapiens) (UniProt P03951)

Ki: 288 nM
Substance: aprotinin (from UniProt P00974)
